Measured values as given in paper PMC4369172.

Target: RhoGDI2 (Rho GDP dissociation inhibitor 2), endogenous (human (endogenous in RT4, T24, MDA-MB-231, Jurkat, OVCAR-4)) (UniProt P52566)
Test: co-IP

percent of total GTPase bound to RhoGDI2: 38%
Substance: Rac1, endogenous (from UniProt P63000 1-192) (natural protein)
